Calls of active or inactive are those of the source. Unless noted, the rule behind the calls is not given here.
Assays:
[1] = molecular target: Tyrosine-protein kinase Yes (Homo sapiens, UniProt P07947)
[2] = molecular target: Cyclin-dependent kinase 9 (Homo sapiens, UniProt P50750)
[3] = molecular target: Cyclin-dependent kinase 7 (Homo sapiens, UniProt P50613)
[4] = molecular target: Receptor-type tyrosine-protein kinase FLT3 (Homo sapiens, UniProt P36888)
[5] = molecular target: Protein kinase C beta type (Homo sapiens, UniProt P05771)

Sequences of proteins named here, by UniProt entry; tags and fusion partners are left off. A change or cut given only in a name is not applied to a line headed by its entry.
UniProt P07947, whole entry: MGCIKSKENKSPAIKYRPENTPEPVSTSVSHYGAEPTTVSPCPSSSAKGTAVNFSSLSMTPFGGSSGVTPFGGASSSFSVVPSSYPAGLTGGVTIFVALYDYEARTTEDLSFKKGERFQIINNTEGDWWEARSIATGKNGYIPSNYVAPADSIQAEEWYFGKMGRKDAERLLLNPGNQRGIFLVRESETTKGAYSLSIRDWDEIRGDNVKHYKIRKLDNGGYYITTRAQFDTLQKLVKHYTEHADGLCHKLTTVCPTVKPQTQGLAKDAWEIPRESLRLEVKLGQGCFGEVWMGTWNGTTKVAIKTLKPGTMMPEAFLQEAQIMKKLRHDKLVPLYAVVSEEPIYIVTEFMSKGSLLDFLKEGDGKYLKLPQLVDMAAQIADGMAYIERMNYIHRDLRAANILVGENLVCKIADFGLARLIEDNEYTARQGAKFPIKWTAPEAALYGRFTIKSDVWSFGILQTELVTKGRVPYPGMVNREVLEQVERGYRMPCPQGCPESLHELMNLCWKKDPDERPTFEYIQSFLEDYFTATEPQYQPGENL
UniProt P50750, whole entry: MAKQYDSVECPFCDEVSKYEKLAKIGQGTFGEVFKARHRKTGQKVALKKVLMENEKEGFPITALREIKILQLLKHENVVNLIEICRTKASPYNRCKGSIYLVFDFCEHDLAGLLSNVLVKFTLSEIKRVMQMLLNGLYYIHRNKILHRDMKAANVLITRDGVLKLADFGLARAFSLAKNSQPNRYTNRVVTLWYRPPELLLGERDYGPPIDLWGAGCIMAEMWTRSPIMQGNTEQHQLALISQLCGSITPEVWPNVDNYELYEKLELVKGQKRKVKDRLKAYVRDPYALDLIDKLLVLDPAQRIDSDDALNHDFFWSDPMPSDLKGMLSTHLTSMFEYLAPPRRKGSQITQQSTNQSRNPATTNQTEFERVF
UniProt P50613: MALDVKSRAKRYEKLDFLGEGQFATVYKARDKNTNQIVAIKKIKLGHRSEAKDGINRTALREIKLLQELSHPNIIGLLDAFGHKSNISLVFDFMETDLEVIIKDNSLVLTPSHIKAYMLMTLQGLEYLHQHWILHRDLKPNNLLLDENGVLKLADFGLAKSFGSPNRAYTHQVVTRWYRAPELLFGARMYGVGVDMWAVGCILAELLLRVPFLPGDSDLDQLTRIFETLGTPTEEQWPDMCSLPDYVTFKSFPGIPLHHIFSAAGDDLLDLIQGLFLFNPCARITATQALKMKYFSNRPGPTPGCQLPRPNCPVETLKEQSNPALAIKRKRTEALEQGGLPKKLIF
UniProt P36888, whole entry: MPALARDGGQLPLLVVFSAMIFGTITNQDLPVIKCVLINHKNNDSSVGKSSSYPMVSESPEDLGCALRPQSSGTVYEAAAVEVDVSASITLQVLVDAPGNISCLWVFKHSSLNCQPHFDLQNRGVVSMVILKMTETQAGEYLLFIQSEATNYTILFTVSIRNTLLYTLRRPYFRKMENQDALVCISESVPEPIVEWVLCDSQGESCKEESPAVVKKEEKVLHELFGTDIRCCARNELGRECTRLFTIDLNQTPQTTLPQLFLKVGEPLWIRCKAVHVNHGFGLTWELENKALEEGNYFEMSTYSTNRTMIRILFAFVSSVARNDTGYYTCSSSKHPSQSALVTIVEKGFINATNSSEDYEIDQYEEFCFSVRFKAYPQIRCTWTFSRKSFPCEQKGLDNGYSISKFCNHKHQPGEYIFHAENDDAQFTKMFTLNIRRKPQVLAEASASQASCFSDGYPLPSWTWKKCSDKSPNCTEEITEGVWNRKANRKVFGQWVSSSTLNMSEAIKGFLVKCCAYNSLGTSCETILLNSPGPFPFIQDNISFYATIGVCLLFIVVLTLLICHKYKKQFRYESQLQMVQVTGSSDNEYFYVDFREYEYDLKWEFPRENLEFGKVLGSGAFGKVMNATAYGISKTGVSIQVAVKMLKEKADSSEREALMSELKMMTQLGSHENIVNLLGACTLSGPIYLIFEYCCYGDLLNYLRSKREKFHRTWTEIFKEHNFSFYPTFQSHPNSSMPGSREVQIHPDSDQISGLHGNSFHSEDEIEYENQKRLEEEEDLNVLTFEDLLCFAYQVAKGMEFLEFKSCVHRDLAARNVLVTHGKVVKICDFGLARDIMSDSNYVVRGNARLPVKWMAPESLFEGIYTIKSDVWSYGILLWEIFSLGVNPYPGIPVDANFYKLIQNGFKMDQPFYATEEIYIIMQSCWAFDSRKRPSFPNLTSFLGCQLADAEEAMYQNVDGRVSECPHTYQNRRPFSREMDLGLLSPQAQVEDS
UniProt P05771, whole entry: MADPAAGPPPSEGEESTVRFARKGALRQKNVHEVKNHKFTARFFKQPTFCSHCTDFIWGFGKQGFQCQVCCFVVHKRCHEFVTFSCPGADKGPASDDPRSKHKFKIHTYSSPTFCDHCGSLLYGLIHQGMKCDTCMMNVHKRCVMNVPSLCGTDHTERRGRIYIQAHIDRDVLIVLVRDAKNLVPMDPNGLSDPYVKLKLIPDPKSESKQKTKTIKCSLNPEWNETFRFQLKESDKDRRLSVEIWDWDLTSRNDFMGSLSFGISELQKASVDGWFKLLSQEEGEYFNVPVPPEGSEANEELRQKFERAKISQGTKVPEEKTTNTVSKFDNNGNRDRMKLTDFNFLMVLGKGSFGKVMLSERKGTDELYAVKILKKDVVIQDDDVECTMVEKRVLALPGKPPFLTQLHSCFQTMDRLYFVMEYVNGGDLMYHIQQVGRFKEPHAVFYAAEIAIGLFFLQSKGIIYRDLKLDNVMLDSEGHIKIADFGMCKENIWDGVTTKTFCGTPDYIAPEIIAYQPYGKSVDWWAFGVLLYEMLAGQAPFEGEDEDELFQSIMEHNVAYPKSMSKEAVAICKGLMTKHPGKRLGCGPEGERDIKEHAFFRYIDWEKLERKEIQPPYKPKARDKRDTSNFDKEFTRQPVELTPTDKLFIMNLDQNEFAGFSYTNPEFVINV

SMILES | Kd [2] | also measured
CCN1CCN(Cc2ccc(-c3cc4c(N[C@H](C)c5ccccc5)ncnc4[nH]3)cc2)CC1 [AEE-788] |  | Kd [1]: active: 17.2 µM
COc1ccc2c(OCc3nnc4ccc(-c5ccccc5)nn34)ccnc2c1 [AMG-208] | inactive: > 30 µM | 
COCC(=O)NC/C=C/c1ccc2ncnc(Nc3ccc(Oc4ccc(C)nc4)c(C)c3)c2c1 [CP-724714] | inactive: > 30 µM | 
CC1(COc2ccc3c(c2)ncn3-c2ccc3cccc(N4CCC(N)CC4)c3n2)COC1 [CRENOLANIB] |  | Kd [3]: inactive: > 30 µM
FC(F)(F)c1ccc(/C=C/c2nc(COc3ccc(CCCCn4ccnn4)cc3)co2)cc1 [MUBRITINIB] | inactive: > 30 µM | 
C1=C/COCc2cc(ccc2OCCN2CCCC2)Nc2nccc(n2)-c2cccc(c2)COC/1 [PACRITINIB] |  | Kd [4]: active: 0.228 µM
Cn1cc(-c2cnn3c(N)c(Br)c([C@@H]4CCCNC4)nc23)cn1 [SCH-900776] | inactive: > 30 µM | 
CN1CCN(c2nc(C3=C(c4c[nH]c5ccccc45)C(=O)NC3=O)c3ccccc3n2)CC1 [SOTRASTAURIN] |  | Kd [5]: active: 0.024 µM
CN1C/C=C/CCOc2cccc(c2)-c2ccnc(n2)Nc2cccc(c2)C1 [ZOTIRACICLIB] | active: 0.001 µM | 

Source: ChEMBL document CHEMBL3991601, “The target landscape of clinical kinase drugs” (Science, 2017)
